Data set [1] concerns the target T1, CYP3A4 (Homo sapiens, UniProt P08684). The following applies: microsomes.
The target in data set [2] is T1, CYP3A4. The experiment in a line: Inhibition of felodipine metabolism in CYP3A4-expressed human intestinal microsomes (HIM). Also noted: microsomes were prepared from donor human livers; tissue BD Biosciences (Pty) Ltd (Woburn, Mass., USA); host or cells: pooled human liver microsomes, 30 donors. In kind it is biochemical. The text has this:
In vitro drug metabolism for in vivo correlation often employs HLM. Pre-systemic drug metabolism occurs principally in the intestinal wall and the liver. An HLM inhibitor may not necessarily have the same effect in the intestines although cytochromic morphology might be the same. If this is the case, prospective oral bioavailability must necessarily be absorbed for hepatic activity. An enzyme inhibitor active against intestinal CYP will prevent intestinal pre-systemic metabolism and enhance oral bioavailability. Thus the use of HIM was to investigate the effects of HLM inhibitors on intestinal metabolism for a more reliable extrapolation. The modelled modulators were incubated with felodipine at the predetermined Km value with CYP3A4 expressed HIM. This was for in vivo correlational reliability. Prospective in vivo HLM modulators must be absorbed. It was reasoned that compounds active against HLM may not survive the physicochemical barriers necessary for hepatic absorption. The use of HIM estimates the potential utility of the modelled modulators that are pre-systemically degradable and whose potencies may be lost outside the gastrointestinal tract. […]. Thus, this confirms the potential utility of the modelled pre-systemic enzymatic modulators in oral drug delivery for enhancing the oral bioavailability of various classes of active pharmaceutical compositions.

Chains of the proteins cited; added tags and fusions are not shown.
UniProt P08684, whole entry: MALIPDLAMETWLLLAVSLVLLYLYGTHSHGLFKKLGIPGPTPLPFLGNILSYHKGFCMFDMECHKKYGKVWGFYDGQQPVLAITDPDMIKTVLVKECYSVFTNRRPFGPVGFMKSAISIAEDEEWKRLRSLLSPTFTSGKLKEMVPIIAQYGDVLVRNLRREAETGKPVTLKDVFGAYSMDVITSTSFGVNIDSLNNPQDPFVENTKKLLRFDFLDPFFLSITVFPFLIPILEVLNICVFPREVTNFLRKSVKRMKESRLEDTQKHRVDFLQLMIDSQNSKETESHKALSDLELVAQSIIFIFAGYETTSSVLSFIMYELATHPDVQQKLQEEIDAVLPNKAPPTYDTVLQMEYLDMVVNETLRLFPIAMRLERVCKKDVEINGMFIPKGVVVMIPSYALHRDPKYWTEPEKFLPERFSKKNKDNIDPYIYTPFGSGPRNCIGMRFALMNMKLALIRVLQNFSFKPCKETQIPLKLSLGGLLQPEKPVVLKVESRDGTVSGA

pIC50: −log10 of the molar value. Read-outs that look alike come from different tables or passages of the source.

In the case of “poly(methyl methacrylate) [Poly(methyl methacrylate) 10000]”, on CYP3A4 [1], the “% Inhibition in HLM” value amounted to 50%, the Highest inhibition is 88, the pIC50 was 4.79 and the “IC50 (mg/mL)” value worked out at 0.1628 mg/mL. Also, on CYP3A4 [2], the “% Inhibition in HIM” value is reported as 54.51% and the pIC50 is 4.80.

By pIC50 is commonly meant the negative decadic logarithm of the IC50, by convention in mol/L.

The values are drawn from patent publication US20140037574A1, “PHARMACEUTICAL COMPOSITION” (priority 2010, published 2014).
